Measured values from ChEMBL document CHEMBL1145308 (Bioorg Med Chem Lett, 2006).

By UniProt entry, the sequences of proteins in these tests, tags left out.
UniProt P35372, whole entry: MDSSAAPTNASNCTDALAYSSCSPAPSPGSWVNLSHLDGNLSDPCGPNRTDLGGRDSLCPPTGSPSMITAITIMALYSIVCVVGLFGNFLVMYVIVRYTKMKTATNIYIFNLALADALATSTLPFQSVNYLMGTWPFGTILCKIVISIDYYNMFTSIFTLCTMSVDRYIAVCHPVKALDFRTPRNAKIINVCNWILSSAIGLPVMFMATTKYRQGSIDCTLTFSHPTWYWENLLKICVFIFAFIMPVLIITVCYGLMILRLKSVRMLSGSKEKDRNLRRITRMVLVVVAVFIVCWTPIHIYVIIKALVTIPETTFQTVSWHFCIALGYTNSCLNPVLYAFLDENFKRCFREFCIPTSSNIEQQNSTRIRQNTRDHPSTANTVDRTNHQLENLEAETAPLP
UniProt P41146, whole entry: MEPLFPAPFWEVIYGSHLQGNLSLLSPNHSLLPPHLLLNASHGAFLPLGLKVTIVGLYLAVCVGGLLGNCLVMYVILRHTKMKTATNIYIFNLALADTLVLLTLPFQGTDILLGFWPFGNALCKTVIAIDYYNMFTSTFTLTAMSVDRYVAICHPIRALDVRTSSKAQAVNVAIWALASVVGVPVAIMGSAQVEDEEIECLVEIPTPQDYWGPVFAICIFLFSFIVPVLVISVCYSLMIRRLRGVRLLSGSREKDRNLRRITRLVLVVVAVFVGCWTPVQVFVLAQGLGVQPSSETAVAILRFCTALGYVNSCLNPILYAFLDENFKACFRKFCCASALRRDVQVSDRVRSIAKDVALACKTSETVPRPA

Legend:
Mu-type opioid receptor = Mu-type opioid receptor (Homo sapiens, UniProt P35372); assay: Displacement of [3H]naloxone from mu opioid receptor expressed in BHK cells
Nociceptin receptor = Nociceptin receptor (Homo sapiens, UniProt P41146); assay: Displacement of [3H]NOP from human NOP receptor expressed in HEK293 cells

Question: What does the source list for `O=C1NCN(c2ccccc2)C12CCN(C1(c3ccccc3)CCCCC1)CC2`?
Answer: IC50 (Mu-type opioid receptor): 15 nM; IC50 (Nociceptin receptor): 15 nM
